{"source": "patent US10160948B2", "about": "“Pluripotent embryonic-like stem cells, compositions, methods and uses thereof” (ABT HOLDING COMPANY, priority 1999, dated 2018)", "key": {"pluripotent stem cells": {"test_system": "pluripotent stem cells", "assay": "Proliferation and phenotypic responses to bioactive factors: pluripotent cells", "assay_type": "cell-based", "from_the_text": "(§1) Having access to mixed populations of progenitor stem cells, progenitor stem cell clones, and pluripotent stem cell clones permits one to address the influence of various bioactive factors (e.g. recombinant growth factors, purified compounds, and novel inductive factors) on the growth characteristics and phenotypic expression of these stem cells. In initial studies, we have tested fourteen bioactive factors with these cells, both singly and in combination (TABLE 12). Three general categories of activities have been shown (proliferation, lineage-commitment, and lineage-progression). The bioactive factors could produce either stimulatory or inhibitory effects. The effects could be either general across all the lineages or limited to one or more specific tissue lineages.\nCryopreserved cells are thawed and plated in MSC-1 at 5, 10, or 20×10^3 cells per well of gelatinized 24-well plates following the standard protocol. Twenty-four hours after initial plating the medium is changed to testing medium (TM) 1 to 6 (TM-1, TM-2, TM-3, TM-4, TM-5, or TM-6). TM-1 to TM-4 consist of Ultraculture (cat. no. 12-725B, lot. nos. OMO455 [TM-1], 1M1724 [TM-2], 2M0420 [TM-3], or 2M0274 [TM-4], Bio-Whittaker, Walkersville, Md.), medium (EMEM or Opti-MEM 0.01 mM β-mercaptoethanol), and 1% (v/v) antibiotic-antimycotic, pH 7.4. TM-5 consists of 98% (v/v) medium, 1% (v/v) HS, and 1% (v/v) antibiotic-antimycotic, pH 7.4. TM-6 consists of 98.5% (v/v) medium, 0.5% (v/v) HS, and 1% (v/v) antibiotic-antimycotic, pH 7.4. Testing medium containing ratios of Ultraculture: medium (EMEM or Opti-MEM+0.01 mM β-mercaptoethanol): antibiotics (+antimycotics) maintained both progenitor and pluripotent cells in “steady-state” conditions for a minimum of 30 days in culture, and as long as 120 days in culture. […] The ratios of Ultraculture to medium to antibiotics present in each testing medium was determined empirically for each lot of Ultraculture, based on its ability to maintain steady-state culture conditions in both populations of avian progenitor and pluripotent cells. […]"}, "progenitor stem cells": {"test_system": "progenitor stem cells", "assay": "Proliferation and phenotypic responses to bioactive factors: progenitor cells", "assay_type": "cell-based", "from_the_text": "as §1\nCryopreserved cells are thawed and plated in MSC-1 at 5, 10, or 20×10^3 cells per well of gelatinized 24-well plates following the standard protocol. Twenty-four hours after initial plating the medium is changed to testing medium (TM) 1 to 6 (TM-1, TM-2, TM-3, TM-4, TM-5, or TM-6). […] The ratios of Ultraculture to medium to antibiotics present in each testing medium was determined empirically for each lot of Ultraculture, based on its ability to maintain steady-state culture conditions in both populations of avian progenitor and pluripotent cells. […]"}, "[1]": {"conditions": "presence and approximate distribution of differentiated phenotypes within the culture wells"}}}
{"molecule": "BMP-2: Bone morphogenetic protein-2 (protein, UniProt P12643 283-396, looked up) Bone morphogenetic protein 2: QAKHKQRKRLKSSCKRHPLYVDFSDVGWNDWIVAPPGYHAFYCHGECPFPLADHLNSTNHAIVQTLVNSVNSKIPKACCVPTELSAISMLYLDENEKVVLKNYQDMVVEGCGCR", "values": [{"measurement": "Proliferation, Pluripotent: number of times the agent increased the DNA content per well versus its respective control", "setting": "pluripotent stem cells", "result": 2, "unit": "times"}, {"measurement": "activity on pluripotent and progenitor stem cells, in words", "setting": "pluripotent stem cells; pluripotent and progenitor cells", "result": "specific chondrogenic lineage-commitment agent in pluripotent cells"}, {"measurement": "Phenotypic Expression, Pluripotent", "setting": "pluripotent stem cells; [1]", "result": "C++++"}, {"measurement": "Proliferation, Progenitor: number of times the agent increased the DNA content per well versus its respective control", "setting": "progenitor stem cells", "result": 2, "unit": "times"}, {"measurement": "Phenotypic Expression, Progenitor", "setting": "progenitor stem cells; [1]", "result": "C+++/All+"}]}
